Results on 1 compound are retold here after ChEMBL document CHEMBL1914317, “Triazole ring-opening leads to the discovery of potent nonsteroidal 17β-hydroxysteroid dehydrogenase type 2 inhibitors” (Eur J Med Chem, 2011).

Chains of the proteins cited; added tags and fusions are not shown.
UniProt P03372, whole entry: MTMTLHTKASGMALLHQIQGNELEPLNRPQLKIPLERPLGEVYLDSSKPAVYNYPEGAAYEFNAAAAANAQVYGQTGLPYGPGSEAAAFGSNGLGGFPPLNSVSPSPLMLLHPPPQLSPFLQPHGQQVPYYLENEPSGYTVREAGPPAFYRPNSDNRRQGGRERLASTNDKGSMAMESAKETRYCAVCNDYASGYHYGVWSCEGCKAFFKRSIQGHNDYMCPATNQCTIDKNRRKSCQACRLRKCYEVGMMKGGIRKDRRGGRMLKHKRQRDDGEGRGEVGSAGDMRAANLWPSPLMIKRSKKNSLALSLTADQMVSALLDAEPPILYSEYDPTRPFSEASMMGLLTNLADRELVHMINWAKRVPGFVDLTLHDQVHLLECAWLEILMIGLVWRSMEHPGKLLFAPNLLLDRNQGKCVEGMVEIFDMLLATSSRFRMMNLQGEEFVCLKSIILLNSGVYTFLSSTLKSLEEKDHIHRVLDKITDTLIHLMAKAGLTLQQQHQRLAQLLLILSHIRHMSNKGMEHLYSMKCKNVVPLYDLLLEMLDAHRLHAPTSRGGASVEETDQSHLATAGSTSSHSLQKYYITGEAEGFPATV
UniProt Q92731, whole entry: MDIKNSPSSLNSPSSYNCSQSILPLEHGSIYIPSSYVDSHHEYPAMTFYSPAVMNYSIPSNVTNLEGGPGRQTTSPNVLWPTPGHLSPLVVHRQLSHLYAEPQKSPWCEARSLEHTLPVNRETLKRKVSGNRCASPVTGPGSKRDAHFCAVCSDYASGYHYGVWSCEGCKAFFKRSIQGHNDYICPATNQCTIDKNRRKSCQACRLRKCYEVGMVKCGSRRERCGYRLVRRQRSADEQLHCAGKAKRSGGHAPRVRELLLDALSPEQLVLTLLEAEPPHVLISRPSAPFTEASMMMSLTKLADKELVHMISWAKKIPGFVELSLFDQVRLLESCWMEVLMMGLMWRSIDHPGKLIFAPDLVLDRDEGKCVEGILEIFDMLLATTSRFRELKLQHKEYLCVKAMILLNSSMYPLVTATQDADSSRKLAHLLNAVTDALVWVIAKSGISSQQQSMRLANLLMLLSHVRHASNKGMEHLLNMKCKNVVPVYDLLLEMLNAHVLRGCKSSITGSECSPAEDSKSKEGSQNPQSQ

Test [1] deals with Estrogen receptor (Homo sapiens) (UniProt P03372). The experiment in a line: Displacement of [3H]estradiol from human recombinant ERalpha assessed as relative binding affinity after 1 hr by liquid scintillation counting relative to estradiol. Summed up: (§1)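 Recombinant human ERα or ERβ (0.25 pmol) incubated with [3H]-E2 (10 nM) plus test compound, 1 h at room temperature; compound in DMSO (5% final). Nonspecific binding defined with diethylstilbestrol (10 µM). Receptor–ligand complexes captured on hydroxyapatite, washed, resuspended in ethanol, counted by liquid scintillation.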

For test [2], the target named is Estrogen receptor beta (Homo sapiens) (UniProt Q92731). In words: Displacement of [3H]estradiol from human recombinant ERbeta assessed as relative binding affinity after 1 hr by liquid scintillation counting relative to estradiol. The essentials:
as §1

With `COc1cccc(-c2ccc(C(=O)N(C)Cc3cccc(O)c3)s2)c1`, the RBA in test [1] and in test [2] was under 0.1% in each case.
